What was measured:
[1] = target: T1, hGIPR (Homo sapiens, UniProt P48546); experiment: Functional cAMP activity in the presence of 1% HSA; assay type: cell-based
T1 sequence (P48546 22-466): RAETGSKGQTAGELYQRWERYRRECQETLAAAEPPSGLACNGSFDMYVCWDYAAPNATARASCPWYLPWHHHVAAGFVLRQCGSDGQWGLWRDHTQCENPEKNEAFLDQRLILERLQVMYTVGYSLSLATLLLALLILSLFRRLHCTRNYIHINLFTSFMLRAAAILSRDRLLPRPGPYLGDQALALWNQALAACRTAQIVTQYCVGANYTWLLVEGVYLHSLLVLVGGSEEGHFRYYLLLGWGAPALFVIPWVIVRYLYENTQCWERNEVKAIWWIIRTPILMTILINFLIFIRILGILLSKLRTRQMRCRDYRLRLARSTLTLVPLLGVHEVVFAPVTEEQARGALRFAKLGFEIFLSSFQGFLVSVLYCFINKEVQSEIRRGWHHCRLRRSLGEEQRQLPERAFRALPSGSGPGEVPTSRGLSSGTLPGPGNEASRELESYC

Amino acid sequences for entries named in this document (tags omitted). Residues count along the entry.
UniProt P43220, 24-463: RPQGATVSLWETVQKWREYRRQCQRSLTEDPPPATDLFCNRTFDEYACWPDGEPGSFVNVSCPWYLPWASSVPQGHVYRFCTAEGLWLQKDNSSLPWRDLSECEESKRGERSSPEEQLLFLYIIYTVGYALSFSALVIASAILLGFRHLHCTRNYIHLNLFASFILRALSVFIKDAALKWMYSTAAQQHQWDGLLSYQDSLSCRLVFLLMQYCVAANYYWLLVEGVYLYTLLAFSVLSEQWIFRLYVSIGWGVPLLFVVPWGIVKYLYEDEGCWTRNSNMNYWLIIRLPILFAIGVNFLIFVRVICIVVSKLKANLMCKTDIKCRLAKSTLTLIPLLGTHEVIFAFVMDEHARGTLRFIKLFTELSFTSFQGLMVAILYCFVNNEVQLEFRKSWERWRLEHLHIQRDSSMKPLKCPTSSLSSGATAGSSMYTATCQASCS
UniProt P47871, 26-477: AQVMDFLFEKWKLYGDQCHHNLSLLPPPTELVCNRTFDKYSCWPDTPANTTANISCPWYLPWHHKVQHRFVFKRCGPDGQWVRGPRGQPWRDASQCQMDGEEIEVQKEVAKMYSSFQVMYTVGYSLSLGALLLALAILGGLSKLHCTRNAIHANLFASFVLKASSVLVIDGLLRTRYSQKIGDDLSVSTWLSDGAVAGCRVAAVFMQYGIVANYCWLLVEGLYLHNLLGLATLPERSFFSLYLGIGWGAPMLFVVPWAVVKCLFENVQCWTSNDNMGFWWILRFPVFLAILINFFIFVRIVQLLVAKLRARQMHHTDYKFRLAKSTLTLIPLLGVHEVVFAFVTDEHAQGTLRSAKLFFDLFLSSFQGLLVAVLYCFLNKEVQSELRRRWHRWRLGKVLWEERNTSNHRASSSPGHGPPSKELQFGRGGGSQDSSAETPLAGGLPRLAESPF

[2] = target: T2, hGLP-1R (Homo sapiens, UniProt P43220); experiment: GLP-1R CHO cell β-arrestin recruitment assay; assay type: cell-based; design: host or cells: CHO-K1 (PathHunter, assay-ready frozen cells);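 note: luminescence read after 90 min peptide exposure at 37 °C and a further 60 min with detection reagent at room temperature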
[3] = target: human GLP1-R (Homo sapiens, UniProt P43220); experiment: GLP1-R internalization assay in HEK293 cells; assay type: cell-based; conditions: for Internalization % TOP: normalized to maximum concentration of GLP-1 (100%)
[4] = target: T1, hGIPR; experiment: Functional cAMP activation in the presence of 0.1% casein (no HSA); assay type: cell-based
[5] = Pharmacokinetics in male Sprague Dawley rats, single subcutaneous administration; conditions: rat, in vivo, single SC 10 nmol/kg, mean n=3
[6] = target: human GcgR (Homo sapiens, UniProt P47871); experiment: Functional cAMP activity in the presence of 1% HSA; assay type: cell-based
[7] = target: T2, hGLP-1R; experiment: Functional cAMP activity in the presence of 1% HSA; assay type: cell-based
[8] = target: hGcgR (Homo sapiens, UniProt P47871); experiment: Functional cAMP activation in the presence of 0.1% casein (no HSA); assay type: cell-based;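 note: intracellular cAMP rise after 30 min at 37 °C, read by HTRF against a cAMP standard curve, scaled from buffer only (0%) to maximal control ligand response (100%)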
[9] = target: T2, hGLP-1R; experiment: as above; assay type: cell-based

| Compound | EC50 [1] | EC50 [2] | % Stimulation Max ([2]; normalized to GLP-1(7-36) as maximum control) | EC50 [3] | Internalization % TOP [3] | EC50 [4] | CL/F [5] | half-life [5] | EC50 [6] | EC50 [7] | EC50 [8] | EC50 [9] |
| --- | --- | --- | --- | --- | --- | --- | --- | --- | --- | --- | --- | --- |
| CC[C@H](C)[C@H](NC(=O)[C@H](Cc1ccccc1)NC(=O)[C@H](C)NC(=O)C(C)(C)NC(=O)[C@H](CCC(N)=O)NC(=O)[C@H](C)NC(=O)[C@H](CCCCNC(=O)COCCOCCNC(=O)CC[C@H](NC(=O)CCCCCCCCCCCCCCCCCCC(=O)O)C(=O)O)NC(=O)[C@H](CCCCN)NC(=O)[C@H](CC(=O)O)NC(=O)[C@H](CC(C)C)NC(=O)[C@](C)(CC(C)C)NC(=O)[C@H](CCCCN)NC(=O)[C@H](CO)NC(=O)[C@H](Cc1ccccc1)NC(=O)[C@H](CC(=O)O)NC(=O)[C@H](CO)NC(=O)[C@@H](NC(=O)[C@H](Cc1ccccc1)NC(=O)[C@@H](NC(=O)CNC(=O)[C@H](CCC(N)=O)NC(=O)C(C)(C)NC(=O)[C@@H](N)Cc1ccc(O)cc1)[C@@H](C)O)[C@@H](C)O)C(=O)N[C@@H](CCC(=O)O)C(=O)N[C@@H](Cc1ccc(O)cc1)C(=O)N[C@@H](CC(C)C)C(=O)N[C@@H](CC(C)C)C(=O)N[C@@H](C)C(=O)NCC(=O)NCC(=O)N1CCC[C@H]1C(=O)N[C@@H](CO)C(=O)N[C@@H](CO)C(=O)NCC(=O)N[C@@H](CCC(=O)O)C(=O)N1CCC[C@H]1C(=O)N1CCC[C@H]1C(=O)N1CCC[C@H]1C(=O)N[C@@H](CO)C(=O)N[C@@H](CCC(=O)O)C(=O)NCC(N)=O [Example 1] | 73.9 nM | > 10000 nM | 17.3% | 44.7 nM | 69.1% | 0.207 nM | 0.21 mL/min/kg | 16.1 h | 1690 nM | 524 nM | 3.72 nM | 1.42 nM |
| CC[C@H](C)[C@H](NC(=O)[C@H](Cc1ccccc1)NC(=O)[C@H](C)NC(=O)C(C)(C)NC(=O)[C@H](CCC(N)=O)NC(=O)[C@H](C)NC(=O)[C@H](CCCCNC(=O)COCCOCCNC(=O)CC[C@H](NC(=O)CCCCCCCCCCCCCCCCC(=O)O)C(=O)O)NC(=O)[C@H](CCCCN)NC(=O)[C@H](CC(=O)O)NC(=O)[C@H](CC(C)C)NC(=O)[C@](C)(CC(C)C)NC(=O)[C@H](CCCNC(=N)N)NC(=O)[C@H](CO)NC(=O)[C@H](Cc1ccccc1)NC(=O)[C@H](CC(=O)O)NC(=O)[C@H](CO)NC(=O)[C@@H](NC(=O)[C@H](Cc1ccccc1)NC(=O)[C@@H](NC(=O)CNC(=O)[C@H](CCC(N)=O)NC(=O)C(C)(C)NC(=O)[C@@H](N)Cc1ccc(O)cc1)[C@@H](C)O)[C@@H](C)O)C(=O)N[C@@H](CCC(=O)O)C(=O)N[C@@H](Cc1ccc(O)cc1)C(=O)N[C@@H](CC(C)C)C(=O)N[C@@H](CC(C)C)C(=O)N[C@@H](CCC(=O)O)C(=O)NCC(=O)NCC(=O)N1CCC[C@H]1C(=O)N[C@@H](CO)C(=O)N[C@@H](CO)C(=O)NCC(=O)N[C@@H](C)C(=O)N1CCC[C@H]1C(=O)N1CCC[C@H]1C(=O)N1CCC[C@H]1C(=O)N[C@@H](CO)C(=O)NCC(=O)N[C@@H](CO)C(N)=O [Example 143] | 63.9 nM |  |  | 337 nM | 43% | 0.211 nM |  |  | 1690 nM | 594 nM | 4.51 nM | 2.44 nM |
| CC[C@H](C)[C@H](NC(=O)[C@H](Cc1ccccc1)NC(=O)[C@H](C)NC(=O)C(C)(C)NC(=O)[C@H](CCC(N)=O)NC(=O)[C@H](C)NC(=O)[C@H](CCCCNC(=O)COCCOCCNC(=O)CC[C@H](NC(=O)CCCCCCCCCCCCCCCCC(=O)O)C(=O)O)NC(=O)[C@H](CCCCN)NC(=O)[C@H](CC(=O)O)NC(=O)[C@H](CC(C)C)NC(=O)[C@](C)(CC(C)C)NC(=O)[C@H](CCCNC(=N)N)NC(=O)[C@H](CO)NC(=O)[C@H](Cc1ccccc1)NC(=O)[C@H](CC(=O)O)NC(=O)[C@H](CO)NC(=O)[C@@H](NC(=O)[C@H](Cc1ccccc1)NC(=O)[C@@H](NC(=O)CNC(=O)[C@H](CCC(N)=O)NC(=O)C(C)(C)NC(=O)[C@@H](N)Cc1ccc(O)cc1)[C@@H](C)O)[C@@H](C)O)C(=O)N[C@@H](CCC(=O)O)C(=O)N[C@@H](Cc1ccc(O)cc1)C(=O)N[C@@H](CC(C)C)C(=O)N[C@@H](CC(C)C)C(=O)N[C@@H](CCC(=O)O)C(=O)NCC(=O)NCC(=O)N[C@@H](CCC(=O)O)C(=O)N[C@@H](CO)C(=O)N[C@@H](CO)C(=O)NCC(=O)N[C@@H](C)C(=O)N1CCC[C@H]1C(=O)N1CCC[C@H]1C(=O)N1CCC[C@H]1C(=O)N[C@@H](CO)C(=O)NCC(=O)N[C@@H](CO)C(N)=O [Example 148] | 74.2 nM |  |  | 95.5 nM | 37.4% | 0.352 nM |  |  | 1330 nM | 870 nM | 3.92 nM | 2.82 nM |

Source: patent publication US20240270821A1, “GIP/GLP1/GCG TRI-RECEPTOR AGONISTS AND USES THEREOF” (priority 2023, published 2024)
